# According to US20230303584A1, “4,5,6,7-TETRAHYDROTHIENO[2,3-C]PYRIDINE SUMO INHIBITORS AND USES THEREOF” (SUVALENT THERAPEUTICS INC., priority 2020, published 2023):
# Protein sequences, listed by entry. Tags and fused reporters are not part of them.
# UniProt Q9UBT2, whole entry: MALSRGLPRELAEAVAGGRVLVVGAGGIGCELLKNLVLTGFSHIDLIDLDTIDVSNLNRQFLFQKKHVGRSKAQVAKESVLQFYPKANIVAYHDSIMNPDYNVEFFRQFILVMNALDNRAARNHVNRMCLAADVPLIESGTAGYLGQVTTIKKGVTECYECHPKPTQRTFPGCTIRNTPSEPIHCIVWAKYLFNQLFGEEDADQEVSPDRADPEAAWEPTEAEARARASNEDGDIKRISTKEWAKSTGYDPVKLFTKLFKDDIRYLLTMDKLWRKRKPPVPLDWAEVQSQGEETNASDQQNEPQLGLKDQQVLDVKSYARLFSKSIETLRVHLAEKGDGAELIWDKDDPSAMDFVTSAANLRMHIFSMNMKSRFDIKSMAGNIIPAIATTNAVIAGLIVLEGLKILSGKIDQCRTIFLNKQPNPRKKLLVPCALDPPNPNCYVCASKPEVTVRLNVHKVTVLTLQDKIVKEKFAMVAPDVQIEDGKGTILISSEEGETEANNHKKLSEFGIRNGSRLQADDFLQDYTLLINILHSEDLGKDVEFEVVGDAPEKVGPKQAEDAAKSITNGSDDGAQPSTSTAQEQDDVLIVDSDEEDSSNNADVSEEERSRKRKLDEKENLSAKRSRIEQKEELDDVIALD
# UniProt Q9UBE0, whole entry partner: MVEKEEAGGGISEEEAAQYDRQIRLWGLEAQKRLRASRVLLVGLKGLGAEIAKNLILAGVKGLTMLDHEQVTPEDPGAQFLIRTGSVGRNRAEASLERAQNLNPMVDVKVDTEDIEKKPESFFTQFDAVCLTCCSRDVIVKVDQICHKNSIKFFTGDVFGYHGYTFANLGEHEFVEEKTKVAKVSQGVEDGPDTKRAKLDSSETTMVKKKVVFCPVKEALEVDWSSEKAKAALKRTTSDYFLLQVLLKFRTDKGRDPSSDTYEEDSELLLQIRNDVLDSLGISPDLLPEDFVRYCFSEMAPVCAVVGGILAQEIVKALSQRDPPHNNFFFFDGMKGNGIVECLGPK
# Biological target: SAE1 (Homo sapiens (Human), UniProt Q9UBT2)
# Assay: SAE high throughput biochemical (HTRF) assay
# Settings: read-out: 15 min preincubation HTRF IC50 (uM) Ave, 100 µM ATP
# Experimental: Assay buffer was prepared [50 mM HEPES, pH 7.5, 0.1% BSA and 10 mM MgCl2] as was the Stop Buffer [100 mM HEPES, pH 7.5, 0.05% Tween20, and 410 mM KF]. The 2x Reaction Buffer [80 nM SUMO-GST, 80 nM UBC9-His, 200 µM ATP and diluted in Assay Buffer] and Antibody Reaction Mix [13.34 nM anti-GST XL665, 1.66 nM anti-His EuK and Diluted in Stop Buffer] were also prepared. Compounds were dissolved at 200x in DMSO in a 384-well plate. Serial dilutions were performed in DMSO for each compound, and then each concentration was diluted another 50-fold in Assay Buffer, to 4x the final concentration. 2.5 µL of each concentration was transferred into its own well in a 384-well plate. SAE1 was then diluted to 4x in Assay Buffer, and 2.5 µL of 4x SAE1 was mixed into each compound-containing well. After incubating for 15 minutes at room temperature, 5 µL of 2x Reaction Buffer was mixed into every well. Then after another 45 minutes at room temperature, 10 µL of Antibody Reaction Mix was added and mixed into every well. This plate was then read on an HTRF-compatible plate reader after 2 hours at room temperature, and again after sitting at room temperature overnight. [Final Component Concentrations: SAE1: 12.5 nM; SUMO-GST: 40 nM; UBC9-His: 40 nM; Anti-GST-XL665: 6.67 nM; Anti-His-EuK: 0.83 nM; and ATP: 100 µM ] Alternatively, the compounds are tested at a single concentration of 25 micromolar and the percent of control is measured.
row,SMILES,IC50
1,C=CC(=O)N1Cc2sc(Cl)cc2[C@H](c2ccccc2-c2cn(-c3ccncc3)nc2C(F)(F)F)C1,0.91 µM
2,C=CC(=O)N1Cc2sc(Cl)cc2C(c2ccccc2-c2cncnc2C)C1 (stereo not shown),3.92 µM
3,"C=CC(=O)N1Cc2sc(Cl)cc2C(c2ccccc2-c2cncnc2C(F)(F)F)C1 (single isomer, unassigned) [249]",2.27 µM
4,C=CC(=O)N1Cc2sc(Cl)cc2[C@H](c2ccccc2-c2c(C(F)(F)F)nn(CC)c2C#N)C1,1.54 µM
5,C=CC(=O)N1Cc2sc(Cl)cc2C(c2ccccc2-c2cn(C)nc2C)C1 (stereo not shown),0.41 µM
6,C=CC(=O)N1Cc2sc(Cl)cc2[C@H](c2ccccc2-c2cnn(CC)c2C(F)(F)F)C1,> 25 µM
7,C=CC(=O)N1Cc2sc(Cl)cc2C(c2ccccc2-c2cn(C)nc2C(F)(F)F)C1 (stereo not shown),0.32 µM
8,CCn1cc(-c2ccccc2[C@@H]2CN(C(=O)/C=C/CN3CCOCC3)Cc3sc(Cl)cc32)c(C(F)(F)F)n1 [Compound 364],20.2 µM
9,C=CC(=O)N1Cc2sc(Cl)cc2C(c2ccccc2-c2cn(Cc3cccnc3)nc2C(F)(F)F)C1 (stereo not shown),0.46 µM
10,C=CC(=O)N1Cc2sc(-c3ccccn3)cc2[C@H](c2ccccc2-c2cn(CC)nc2C(F)(F)F)C1,3.17 µM
11,CCn1cc(-c2ccccc2C2CN(C(=O)/C=C/CN(C)C)C(C)c3sc(Cl)cc32)c(C(F)(F)F)n1 (stereo not shown),8.76 µM
12,C=CC(=O)N1Cc2sc(Cl)cc2C(c2ccsc2Br)C1 (stereo not shown),0.76 µM
13,C=CC(=O)N1Cc2sc(Cl)cc2C(c2ccccc2-c2cccnc2CC)C1 (stereo not shown),5.68 µM
14,"C=CC(=O)N1Cc2sc(Cl)cc2C(c2ccccc2-c2cncnc2C(F)(F)F)C1 (single isomer, unassigned) [253]",2.77 µM
15,C=CC(=O)N1Cc2sc(Cl)cc2C(c2sccc2Br)C1 (stereo not shown),2.8 µM
16,"C=CC(=O)N1Cc2sc(Cl)cc2C(c2ccccc2-c2cnccc2C(F)(F)F)C1 (single isomer, unassigned)",9.17 µM
17,C=CC(=O)N1Cc2sc(Cl)cc2C(c2ccccc2-c2cnoc2)C1 (stereo not shown),10.4 µM
18,C=CC(=O)N1Cc2sc(Cl)cc2C(c2ccccc2-c2cc(C)nn2C)C1 (stereo not shown),1.15 µM
19,C=CC(=O)N1Cc2sc(Cl)cc2[C@H](c2ccccc2-c2cn(CC)nc2C(=O)NC)C1,> 25 µM
20,CN(C)C/C=C/C(=O)N1Cc2sc(Cl)cc2[C@H](c2ccccc2-c2cn(Cc3ncno3)nc2C(F)(F)F)C1,1.7 µM
21,C=CC(=O)N1Cc2sc(Cl)cc2[C@H](c2ccccc2-c2cn(Cc3cocn3)nc2C(F)(F)F)C1,0.66 µM
22,C=CC(=O)N1Cc2sc(Cl)cc2C(c2ccccc2-c2cn(C3CC3)nc2C(F)(F)F)C1 (stereo not shown),0.61 µM
23,C=CC(=O)N1Cc2sc(Cl)cc2C(c2ccccc2-c2cn(Cc3ccccc3)nc2C)C1 (stereo not shown),20.6 µM
24,C=CC(=O)N1Cc2sc(Cl)cc2C(c2ccccc2-c2ccc(C)nc2C)C1 (stereo not shown),3.72 µM
25,C=CC(=O)N1Cc2sc(Cl)cc2C(c2ccccc2-c2cn(-c3ccccn3)nc2C)C1 (stereo not shown),4.08 µM
26,C=CC(=O)N1Cc2sc(Cl)cc2C(c2ccccc2-c2c(C)nn(C)c2C)C1 (stereo not shown),0.58 µM
27,CCn1cc(-c2ccccc2[C@@H]2CN(C(=O)/C=C/CN3CCC(O)C3)Cc3sc(Cl)cc32)c(C(F)(F)F)n1 (stereo partly shown),1.54 µM

row,SMILES,IC50
1,C=CC(=O)N1Cc2sc(Cl)cc2C(c2cscc2Br)C1 (stereo not shown),11.5 µM
2,C=CC(=O)N1Cc2sc(Cl)cc2C(c2ccsc2)C1 (stereo not shown),1.56 µM
3,C=CC(=O)N1Cc2sc(Cl)cc2C(c2ccccc2-c2cn(CC3CC3)nc2C(F)(F)F)C1 (stereo not shown),1.4 µM
4,C=CC(=O)N1Cc2sc(Cl)cc2C(c2ccccc2-c2cn(CC)nc2C(F)(F)F)C1 (stereo not shown),0.33 µM
5,C=CC(=O)N1Cc2sc(Cl)cc2C(c2cccs2)C1 (stereo not shown),1.67 µM
6,C=C(F)C(=O)N1Cc2sc(Cl)cc2[C@H](c2ccccc2-c2cn(CC)nc2C(F)(F)F)C1,> 25 µM
7,C=CC(=O)N1Cc2sc(Cl)cc2C(c2ccccc2-c2ccnn2C)C1 (stereo not shown),1 µM
8,CCn1cc(-c2ccccc2[C@@H]2CN(C(=O)/C=C/CN3CCC3)Cc3sc(Cl)cc32)c(C(F)(F)F)n1,0.89 µM
9,C=CC(=O)N1Cc2sc(Cl)cc2[C@@H](c2ccccc2-c2cn(CC)nc2C(F)(F)F)C1,> 25 µM
10,C=CC(=O)N1Cc2sc(Cl)cc2C(c2ccccc2-c2cccnc2OC)C1 (stereo not shown),4.52 µM
11,CCn1cc(-c2ccccc2[C@@H]2CN(C(=O)/C=C/CN3CCC(O)CC3)Cc3sc(Cl)cc32)c(C(F)(F)F)n1,19.5 µM
12,C=CC(=O)N1Cc2sc(Cl)cc2C(c2ccccc2-c2cccnc2C)C1 (stereo not shown),3.04 µM
13,C=CC(=O)N1Cc2sc(Cl)cc2C(c2ccccc2-c2c(C)noc2C)C1 (stereo not shown),3.31 µM
14,C=CC(=O)N1Cc2sc(Cl)cc2[C@H](c2ccccc2-c2c(C)ncnc2C)C1,12.1 µM
15,C=CC(=O)N1Cc2sc(/C=C/C)cc2[C@H](c2ccccc2-c2cn(CC)nc2C(F)(F)F)C1,1.82 µM
16,C=CC(=O)N1Cc2sc(Cl)cc2C(c2ccsc2C)C1 (stereo not shown),0.94 µM
17,C=CC(=O)N1Cc2sc(Cl)cc2C(c2ccccc2-c2c[nH]nc2C(F)(F)F)C1 (stereo not shown),3 µM
18,[2H]C1([2H])c2sc(Cl)cc2[C@H](c2ccccc2-c2cn(CC)nc2C(F)(F)F)CN1C(=O)C=C,0.48 µM
19,C=CC(=O)N1Cc2sc(Cl)cc2C(c2ccccc2-c2cnsc2)C1 (stereo not shown),12.5 µM
20,"C=CC(=O)N1Cc2sc(Cl)cc2C(c2ccccc2-c2cn(CCCC)nc2C(F)(F)F)C1 (single isomer, unassigned)",0.73 µM
21,CCn1cc(-c2ccccc2C2c3cc(Cl)sc3CN(C(=O)/C=C/CN(C)C)C2C)c(C(F)(F)F)n1 (stereo not shown),3.57 µM
22,C=CC(=O)N1Cc2sc(Cl)cc2C(c2ccsc2-c2cn(C)nc2C)C1 (stereo not shown),12.6 µM
23,C=CC(=O)N1Cc2sc(Cl)cc2C(c2ccccc2-c2cn(CCC)nc2C(F)(F)F)C1 (stereo not shown),0.31 µM
24,C=CC(=O)N1Cc2sccc2C(c2ccccc2-c2cn(CC)nc2C(F)(F)F)C1 (stereo not shown),4.1 µM
25,C=CC(=O)N1CC(c2ccccc2-c2cn(CC)nc2C(F)(F)F)c2cc(Cl)sc2C1C (stereo not shown),11.6 µM
26,C=CC(=O)N1Cc2sc(Cl)cc2C(c2ccccc2-c2cnn(C)c2C)C1 (stereo not shown),6.24 µM

# Same assay, conditions: single concentration 25 µM; 15 min preincubation
row,SMILES,HTRF percent of control (POC) @ 25 µM
1,C=CC(=O)N1Cc2sc(Cl)cc2C(c2ccccc2-c2ccncn2)C1 (stereo not shown),68.77 POC @ 25 µM
2,"C=CC(=O)N1Cc2sc(Cl)cc2C(c2ccccc2-c2cncnc2C(F)(F)F)C1 (single isomer, unassigned) [249]",4.68 POC
3,C=CC(=O)N1Cc2sc(Cl)cc2C(c2ccccc2-c2cccnc2OCC)C1 (stereo not shown),33.75 POC @ 25 µM
4,C=CC(=O)N1Cc2sc(Cl)cc2C(c2ccccc2-c2cncc(C(F)(F)F)c2)C1 (stereo not shown),19.64 POC @ 25 µM
5,C=CC(=O)N1Cc2sc(Cl)cc2C(c2ccccc2-c2cnn(C)c2)C1 (stereo not shown),27.51 POC @ 25 µM
6,C=CC(=O)N1Cc2sc(Cl)cc2C(c2ccccc2-c2cncc(Cl)c2)C1 (stereo not shown),28.04 POC @ 25 µM
7,"C=CC(=O)N1Cc2sc(Cl)cc2C(c2ccccc2-c2cnccc2C(F)(F)F)C1 (single isomer, unassigned)",5.81 POC
8,C=CC(=O)N1Cc2sc(Cl)cc2C(c2ccccc2-c2cncc3ccccc23)C1 (stereo not shown),60.9 POC @ 25 µM
9,C=CC(=O)N1Cc2sc(Cl)cc2C(c2ccccc2-c2ccccn2)C1 (stereo not shown),48.53 POC @ 25 µM
10,C=CC(=O)N1Cc2sc(Cl)cc2C(c2ccccc2-c2cc(C)nn2C)C1 (stereo not shown),0 POC
11,C=CC(=O)N1Cc2sc(Cl)cc2C(c2ccccc2-c2cc(C)ncn2)C1 (stereo not shown),91.85 POC @ 25 µM
12,C=CC(=O)N1Cc2sc(Cl)cc2C(c2ccccc2-c2cc(C)ccn2)C1 (stereo not shown),55.54 POC @ 25 µM
13,C=CC(=O)N1Cc2sc(Cl)cc2C(c2ccccc2-c2ccncc2)C1 (stereo not shown),15.29 POC @ 25 µM
14,C=CC(=O)N1Cc2sc(Cl)cc2C(c2ccccc2-c2cccc(C)n2)C1 (stereo not shown),17.58 POC @ 25 µM
15,C=CC(=O)N1Cc2sc(Cl)cc2C(c2ccccc2-c2cn(Cc3ccccc3)nc2C)C1 (stereo not shown),12.42 POC
16,C=CC(=O)N1Cc2sc(Cl)cc2C(c2ccccc2-c2cn(-c3ccccn3)nc2C)C1 (stereo not shown),12.55 POC

row,SMILES,HTRF percent of control (POC) @ 25 µM
1,C=CC(=O)N1Cc2sc(Cl)cc2C(c2ccccc2-c2cccnc2Cl)C1 (stereo not shown),13.84 POC @ 25 µM
2,C=CC(=O)N1Cc2sc(Cl)cc2C(c2ccccc2-c2c(C)nn(C)c2C)C1 (stereo not shown),4.57 POC
3,C=CC(=O)N1Cc2sc(Cl)cc2C(c2ccccc2-c2cnc(C)c(C)c2)C1 (stereo not shown),14.78 POC @ 25 µM
4,C=CC(=O)N1Cc2sc(Cl)cc2C(c2ccccc2-c2ccnn2C)C1 (stereo not shown),10.61 POC
5,C=CC(=O)N1Cc2sc(Cl)cc2C(c2ccccc2-c2nc(C)co2)C1 (stereo not shown),39.72 POC @ 25 µM
6,C=CC(=O)N1Cc2sc(Cl)cc2C(c2ccccc2-c2cccnc2OC)C1 (stereo not shown),14.972 POC
7,C=CC(=O)N1Cc2sc(Cl)cc2C(c2ccccc2-c2ccnc(C)n2)C1 (stereo not shown),62.81 POC @ 25 µM
8,C=CC(=O)N1Cc2sc(Cl)cc2C(c2ccccc2-c2c(C)noc2C)C1 (stereo not shown),7.23 POC
9,C=CC(=O)N1Cc2sc(Cl)cc2C(c2ccccc2-c2cc(C3CC3)nn2C)C1 (stereo not shown),94.96 POC @ 25 µM
10,C=CC(=O)N1Cc2sc(Cl)cc2C(c2ccccc2-c2cc(C)cc(C)n2)C1 (stereo not shown),>100 POC @ 25 µM
11,C=CC(=O)N1Cc2sc(Cl)cc2C(c2ccccc2-c2ncnn2C)C1 (stereo not shown),29.39 POC @ 25 µM
12,"C=CC(=O)N1Cc2sc(Cl)cc2C(c2ccccc2-c2cn(CCCC)nc2C(F)(F)F)C1 (single isomer, unassigned)",0.7 POC
13,C=CC(=O)N1Cc2sc(Cl)cc2C(c2ccccc2-c2cn(C)nn2)C1 (stereo not shown),>100 POC @ 25 µM
14,C=CC(=O)N1Cc2sc(Cl)cc2C(c2ccccc2-c2cncnc2)C1 (stereo not shown),7.19 POC @ 25 µM
15,C=CC(=O)N1Cc2sc(Cl)cc2C(c2ccccc2-c2cccnc2)C1 (stereo not shown),34.59 POC @ 25 µM

# Same assay, conditions: single concentration printed as 25 mM; 15 min preincubation
row,SMILES,HTRF percent of control (POC) @ 25 mM (so in the source)
1,C=CC(=O)N1Cc2sc(Cl)cc2C(c2ccccc2-c2ncn(C)n2)C1 (stereo not shown),88.81 POC @ 25 mM
